The source of these data is PubChem BioAssay AID488927 (Johns Hopkins Ion Channel Center, 2010).

The entries are a selection whose mix differs from that of the whole data set. The source made the active and inactive calls.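 The calls were made as follows: active = membrane potential signal moved up or down beyond 5 SD of buffer control wells, in both duplicate plates, actives on both sides; inactive = the rest.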

For this assay, the system named is Transient receptor potential cation channel subfamily C member 4 (mouse). In words: TRPC4 modulation by TRPC6 hit compounds, confirmation, selectivity assay for TRPC6 modulator project, cell-based, HEK293 TRPC4/mu-opioid, membrane potential dye, mouse (AID 488927). The settings on record: membrane potential fluorescence, at 10 µM.
As for `CCN(CC)CC(O)COC(=O)C(O)(c1ccccc1)C1CCCCC1` (stereo not drawn), the percent of control was active: 21.5%.
In the case of `O=C(OC1CN2CCC1CC2)C12CC3CC(CC(C3)C1)C2` (stereo not drawn) it was active: 17.5%; in that of `CCN(CC)CCCOC(=O)C(O)(c1ccccc1)c1ccccc1`, active: 15%.
